In US20030224036A1, “Hla class I a2 tumor associated antigen peptides and vaccine compositions” (priority 1999, published 2003):

Target: HLA-A*0202 (human)
Assay: competitive inhibition assay, purified HLA
Details: remark: other sources report otherwise

## HLYQGCQVV [Her2/neu.48]
  IC50: 307 nM
